Holding throughout (experiment): Kinase profiling in a biochemical assay panel (mobility shift assays and ELISA), %-inhibition at 1 μM; selectivity entropy
In assay [1] the target is panel of more than 300 wild-type and mutant kinases (313 kinase panel) (Homo sapiens, UniProt Q13555).
Assay [2] deals with panel of more than 300 wild-type and mutant kinases (313 kinase panel) (Homo sapiens, UniProt Q9UK32).
Assay [3] concerns the target panel of more than 300 wild-type and mutant kinases (313 kinase panel) (Homo sapiens, UniProt Q15759).
The target of assay [4] is panel of more than 300 wild-type and mutant kinases (313 kinase panel) (Homo sapiens, UniProt Q13153).
Assay [5] deals with panel of more than 300 wild-type and mutant kinases (313 kinase panel) (Homo sapiens, UniProt Q9UQM7).
In assay [6] the target is panel of more than 300 wild-type and mutant kinases (313 kinase panel) (Homo sapiens, UniProt P19784).
Assay [7] addresses panel of more than 300 wild-type and mutant kinases (313 kinase panel) (Homo sapiens, UniProt P17948).
For assay [8], the target named is panel of more than 300 wild-type and mutant kinases (313 kinase panel) (Homo sapiens, UniProt P42336).
Assay [9] has as its target T1, panel of more than 300 wild-type and mutant kinases (313 kinase panel) (Homo sapiens, UniProt O14965).
T1 sequence (O14965 1-403): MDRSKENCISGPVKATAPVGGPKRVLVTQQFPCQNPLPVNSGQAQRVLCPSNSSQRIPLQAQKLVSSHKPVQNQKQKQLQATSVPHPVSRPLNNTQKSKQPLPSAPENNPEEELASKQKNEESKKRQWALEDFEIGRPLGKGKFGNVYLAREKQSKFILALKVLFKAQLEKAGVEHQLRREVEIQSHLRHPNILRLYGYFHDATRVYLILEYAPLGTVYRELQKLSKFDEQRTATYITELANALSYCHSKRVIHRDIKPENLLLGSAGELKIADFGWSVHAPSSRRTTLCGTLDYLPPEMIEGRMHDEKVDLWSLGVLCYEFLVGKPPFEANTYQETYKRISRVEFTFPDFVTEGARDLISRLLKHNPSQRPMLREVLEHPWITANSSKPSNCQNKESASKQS

Assay [10] concerns the target panel of more than 300 wild-type and mutant kinases (313 kinase panel) (Homo sapiens, UniProt P49840).
Assay [11] addresses panel of more than 300 wild-type and mutant kinases (313 kinase panel) (Homo sapiens, UniProt P11802).
The target of assay [12] is panel of more than 300 wild-type and mutant kinases (313 kinase panel) (Homo sapiens, UniProt P43403). To be noted: 1 µM.
In assay [13] the target is panel of more than 300 wild-type and mutant kinases (313 kinase panel) (Homo sapiens, UniProt P17612). To be noted: 1 µM.
Assay [14] has as its target panel of more than 300 wild-type and mutant kinases (313 kinase panel) (Homo sapiens, UniProt Q14164). The following applies: 1 µM.
In assay [15] the target is panel of more than 300 wild-type and mutant kinases (313 kinase panel) (Homo sapiens, UniProt P08069).
The target of assay [16] is panel of more than 300 wild-type and mutant kinases (313 kinase panel) (Homo sapiens, UniProt P07949). To be noted: 1 µM.
Assay [17] addresses panel of more than 300 wild-type and mutant kinases (313 kinase panel) (Homo sapiens, UniProt Q04912). The following applies: 1 µM.
Assay [18] concerns the target panel of more than 300 wild-type and mutant kinases (313 kinase panel) (Homo sapiens, UniProt O00141). To be noted: 1 µM.
The target in assay [19] is panel of more than 300 wild-type and mutant kinases (313 kinase panel) (Homo sapiens, UniProt P11362). To be noted: 1 µM.
Assay [20] deals with panel of more than 300 wild-type and mutant kinases (313 kinase panel) (Homo sapiens, UniProt Q08881). To be noted: 1 µM.

The structures appear in SMILES notation.

With `CNC(=O)c1ccccc1Sc1ccc2c(/C=C/c3ccccn3)n[nH]c2c1` [axitinib], the “%-inhibition, CaMK2γ” value in assay [1] (kinase CaMK2γ, 1 μM compound) is given as -10%. The “%-inhibition of RSK4” value in assay [2] (kinase RSK4, 1 μM) came to 44%. Moreover, the “%-inhibition of p38β” value in [3] (kinase p38β, 1 μM) is reported as -2%. The “%-inhibition of PAK1” value in assay [4] (kinase PAK1, 1 μM) is reported as -6.53%. Moreover, the “%-inhibition, CaMK2α” value in [5] (kinase CaMK2α, 1 μM compound) is reported as -6%. For the same compound, the “%-inhibition, CK2α2/β” value in assay [6] (kinase CK2α2/β, 1 μM compound) was -7.47%. Besides, the “%-inhibition of FLT1” value in assay [7] (kinase FLT1, compound at 1 μM) is 102%. In addition, in assay [8] (kinase PIK3CA/PIK3R1, 1 μM), the “%-inhibition of PIK3CA/PIK3R1” value came to 17%. Moreover, the “%-inhibition, AurA/TPX2” value in assay [9] (1 µM) turned out to be 101%. Besides, the “%-inhibition, AurA” value in assay [9] (kinase AurA, 1 μM compound) is 100%. For the same compound, the “%-inhibition of GSK3α” value in [10] (kinase GSK3α, compound at 1 μM) is reported as 11%. Besides, the “%-inhibition, CDK4/CycD3” value in assay [11] (kinase CDK4/CycD3, 1 μM compound) was -5%.

`COc1cc2ncnc(Nc3ccc(F)c(Cl)c3)c2cc1OCCCN1CCOCC1` [gefitinib]: the “%-inhibition, CaMK2γ” value in assay [1] (1 µM) was 14%. The “%-inhibition of RSK4” value in assay [2] (1 µM) was 23%. Also, the “%-inhibition of ZAP70” value in [12] is given as 5.67%. Moreover, the “%-inhibition of p38β” value in [3] (1 µM) is 1.71%. In assay [13], the “%-inhibition of PKACα” value stood at 5.52%. The “%-inhibition of IKKε” value in [14] is on record as 4%. For the same compound, the “%-inhibition of PAK1” value in assay [4] (1 µM) worked out at 10%. For the same compound, in assay [5] (1 µM), the “%-inhibition, CaMK2α” value was found to be 0.793%. In addition, in assay [15], the “%-inhibition of IGF1R” value worked out at 6%. Also, in [16], the “%-inhibition of RET” value stood at 48%. In addition, the “%-inhibition of FLT1” value in assay [7] (1 µM) is recorded as 14%. For the same compound, the “%-inhibition of RON” value in assay [17] stood at 3.18%. In assay [9] (1 µM), the “%-inhibition, AurA” value came to 9% and the “%-inhibition, AurA/TPX2” value is recorded as -7%. For the same compound, the “%-inhibition of GSK3α” value in assay [10] (1 µM) was -6%. Also, the “%-inhibition of SGK” value in assay [18] was found to be 1.89%. In assay [11] (1 µM), the “%-inhibition, CDK4/CycD3” value is given as 1.76%. Also, the “%-inhibition of FGFR1” value in [19] stood at 7%. Besides, in [20], the “%-inhibition of ITK” value amounted to 1.42%.

For `C[C@@H]1CCN(C(=O)CC#N)C[C@@H]1N(C)c1ncnc2[nH]ccc12` [tofacitinib], the “%-inhibition, CaMK2γ” value in assay [1] (1 µM) is reported as -9%. For the same compound, the “%-inhibition of RSK4” value in [2] (1 µM) amounted to 2.67%. Besides, the “%-inhibition of ZAP70” value in [12] was determined as 0.475%. In addition, the “%-inhibition of p38β” value in assay [3] (1 µM) is -1.5%. The “%-inhibition of PKACα” value in assay [13] worked out at 8%. Further, the “%-inhibition of IKKε” value in [14] is given as -5.49%. Also, the “%-inhibition of PAK1” value in [4] (1 µM) is given as -4.48%. Besides, in assay [5] (1 µM), the “%-inhibition, CaMK2α” value is recorded as -2.59%. Also, the “%-inhibition of IGF1R” value in [15] is 0.207%. In addition, the “%-inhibition of RET” value in assay [16] is given as 14%. Further, the “%-inhibition, CK2α2/β” value in assay [6] (1 µM) is -7%. The “%-inhibition of FLT1” value in [7] (1 µM) is 8.49%. In assay [17], the “%-inhibition of RON” value was 4%. Further, in [8] (1 µM), the “%-inhibition of PIK3CA/PIK3R1” value is 34%. In assay [9] (1 µM), the “%-inhibition, AurA” value was found to be 6% and the “%-inhibition, AurA/TPX2” value is given as 58%. The “%-inhibition of GSK3α” value in assay [10] (1 µM) came out at 7%. Moreover, the “%-inhibition of SGK” value in assay [18] was determined as 0.61%. Also, in [11] (1 µM), the “%-inhibition, CDK4/CycD3” value is -5%. For the same compound, the “%-inhibition of FGFR1” value in assay [19] came out at 14%. In addition, in assay [20], the “%-inhibition of ITK” value is -4%.

The values above are taken from PMC3961306, “Comparison of the Cancer Gene Targeting and Biochemical Selectivities of All Targeted Kinase Inhibitors Approved for Clinical Use” (PLoS ONE, 2014).
